The text below walks through data of PMC10118286 (Journal of medicinal chemistry, 2021).

The test system of this experiment is CK1. As to conditions: read-out: CK1 inhibitory profile (IC50); triplicate, mean ± SD.

Each structure is given as a SMILES string. Where only a bound is given, the exact number is not on record here.

Regarding `O=C(O)c1ccc2c(c1)nc(Nc1cccc(Cl)c1)c1ccncc12` [Compound 18, CX-4945, reference compound], the IC50 is more than 10 µM.

As usually defined, the IC50 is the concentration that gives 50% inhibition.
